Only a part is listed here, and it is no random draw. Records with an inconclusive call do not appear. Calls of active or inactive are those of the source. Rule for the calls, unless noted: active = hit-call score of the fitted dose curve at least 0.9, where 1 is the maximum; inactive = score below 0.9.
Legend:
[1] = BSK_SAg_PBMCCytotoxicity: PBMC Cytotoxicity Assessment in the BioMAP Diversity Plus: SAg Assay (AID 2283093); details: primary human HUVEC with PBMC;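 note: PBMC viability measured as Alamar Blue reduction fluorescence at 546/580 nm; fitted both ways against DMSO so a hit may be loss or gain of signal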
Summary of the method: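 Human umbilical vein endothelial cells co-cultured with PBMC; PBMC (75,000/well) pre-treated with compound 1 h, then activated with SEB and TSST-1 (20 ng/mL final each) for 90 h. Alamar Blue added 6 h, fluorescence 546/580 nm; bidirectional fit versus DMSO.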

Sequences of proteins named here, by UniProt entry; tags and fusion partners are left off.
UniProt Q92851, whole entry: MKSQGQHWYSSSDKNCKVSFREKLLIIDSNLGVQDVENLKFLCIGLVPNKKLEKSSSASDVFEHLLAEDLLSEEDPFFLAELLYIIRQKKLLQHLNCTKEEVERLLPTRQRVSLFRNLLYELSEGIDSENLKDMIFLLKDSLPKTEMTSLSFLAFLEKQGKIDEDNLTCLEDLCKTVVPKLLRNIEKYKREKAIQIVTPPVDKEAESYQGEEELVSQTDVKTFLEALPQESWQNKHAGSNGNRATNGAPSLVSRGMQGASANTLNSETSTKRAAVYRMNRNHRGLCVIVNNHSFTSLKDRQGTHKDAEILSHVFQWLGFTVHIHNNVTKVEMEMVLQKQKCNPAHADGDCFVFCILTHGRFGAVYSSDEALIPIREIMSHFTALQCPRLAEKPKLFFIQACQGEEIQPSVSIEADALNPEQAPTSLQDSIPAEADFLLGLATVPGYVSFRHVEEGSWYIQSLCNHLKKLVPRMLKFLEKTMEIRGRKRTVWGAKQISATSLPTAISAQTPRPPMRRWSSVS
UniProt P42575, whole entry: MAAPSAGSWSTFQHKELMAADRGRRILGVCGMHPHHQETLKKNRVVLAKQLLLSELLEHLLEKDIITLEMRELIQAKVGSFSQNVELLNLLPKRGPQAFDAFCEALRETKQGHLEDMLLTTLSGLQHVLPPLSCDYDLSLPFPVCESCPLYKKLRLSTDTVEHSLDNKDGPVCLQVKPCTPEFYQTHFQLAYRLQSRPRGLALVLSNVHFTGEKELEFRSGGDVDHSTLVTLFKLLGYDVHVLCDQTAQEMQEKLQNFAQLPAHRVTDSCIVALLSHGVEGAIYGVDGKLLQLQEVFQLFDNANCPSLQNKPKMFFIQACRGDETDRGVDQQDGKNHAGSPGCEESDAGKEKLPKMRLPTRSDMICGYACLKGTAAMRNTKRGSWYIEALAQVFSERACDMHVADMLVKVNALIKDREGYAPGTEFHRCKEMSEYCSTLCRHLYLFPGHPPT
UniProt P56817, whole entry: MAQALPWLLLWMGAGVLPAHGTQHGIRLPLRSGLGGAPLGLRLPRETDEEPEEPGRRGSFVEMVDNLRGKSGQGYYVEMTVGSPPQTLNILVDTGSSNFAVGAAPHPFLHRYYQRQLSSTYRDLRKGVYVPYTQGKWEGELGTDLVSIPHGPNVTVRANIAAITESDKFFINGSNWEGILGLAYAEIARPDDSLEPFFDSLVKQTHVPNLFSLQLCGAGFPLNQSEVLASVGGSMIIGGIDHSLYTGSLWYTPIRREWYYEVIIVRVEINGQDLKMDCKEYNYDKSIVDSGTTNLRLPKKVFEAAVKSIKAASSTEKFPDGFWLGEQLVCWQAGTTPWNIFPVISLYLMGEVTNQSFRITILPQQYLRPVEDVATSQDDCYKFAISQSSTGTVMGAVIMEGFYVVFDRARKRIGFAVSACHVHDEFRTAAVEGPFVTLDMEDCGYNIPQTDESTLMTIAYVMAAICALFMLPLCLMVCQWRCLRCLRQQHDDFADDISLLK
UniProt Q13131, whole entry: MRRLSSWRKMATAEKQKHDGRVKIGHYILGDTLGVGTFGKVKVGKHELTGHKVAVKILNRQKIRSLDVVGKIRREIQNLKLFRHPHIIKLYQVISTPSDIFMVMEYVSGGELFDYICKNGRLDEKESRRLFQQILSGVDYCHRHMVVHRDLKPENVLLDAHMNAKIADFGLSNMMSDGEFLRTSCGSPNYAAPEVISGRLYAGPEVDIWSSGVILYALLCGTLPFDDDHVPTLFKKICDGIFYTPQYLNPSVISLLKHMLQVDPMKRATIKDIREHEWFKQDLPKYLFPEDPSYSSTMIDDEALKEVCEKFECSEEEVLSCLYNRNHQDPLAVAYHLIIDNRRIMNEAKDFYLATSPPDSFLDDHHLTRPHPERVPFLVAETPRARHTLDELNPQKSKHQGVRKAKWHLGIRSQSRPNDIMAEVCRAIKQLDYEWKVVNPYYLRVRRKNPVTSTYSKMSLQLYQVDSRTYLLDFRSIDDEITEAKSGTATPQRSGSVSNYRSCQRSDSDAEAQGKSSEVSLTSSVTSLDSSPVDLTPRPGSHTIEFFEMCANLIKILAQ
UniProt P31749, whole entry: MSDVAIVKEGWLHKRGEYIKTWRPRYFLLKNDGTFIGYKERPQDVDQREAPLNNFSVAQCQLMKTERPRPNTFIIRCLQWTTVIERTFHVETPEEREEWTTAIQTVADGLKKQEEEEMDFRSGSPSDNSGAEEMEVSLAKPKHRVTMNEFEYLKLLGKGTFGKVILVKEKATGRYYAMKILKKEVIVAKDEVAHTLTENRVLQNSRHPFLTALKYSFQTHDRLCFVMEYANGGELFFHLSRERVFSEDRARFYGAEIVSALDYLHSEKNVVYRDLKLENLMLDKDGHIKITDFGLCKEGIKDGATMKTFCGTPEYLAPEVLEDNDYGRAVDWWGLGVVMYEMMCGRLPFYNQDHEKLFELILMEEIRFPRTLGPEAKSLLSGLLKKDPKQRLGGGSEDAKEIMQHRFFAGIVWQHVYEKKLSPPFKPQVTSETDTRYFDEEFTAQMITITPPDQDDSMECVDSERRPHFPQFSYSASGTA
UniProt P11712, whole entry: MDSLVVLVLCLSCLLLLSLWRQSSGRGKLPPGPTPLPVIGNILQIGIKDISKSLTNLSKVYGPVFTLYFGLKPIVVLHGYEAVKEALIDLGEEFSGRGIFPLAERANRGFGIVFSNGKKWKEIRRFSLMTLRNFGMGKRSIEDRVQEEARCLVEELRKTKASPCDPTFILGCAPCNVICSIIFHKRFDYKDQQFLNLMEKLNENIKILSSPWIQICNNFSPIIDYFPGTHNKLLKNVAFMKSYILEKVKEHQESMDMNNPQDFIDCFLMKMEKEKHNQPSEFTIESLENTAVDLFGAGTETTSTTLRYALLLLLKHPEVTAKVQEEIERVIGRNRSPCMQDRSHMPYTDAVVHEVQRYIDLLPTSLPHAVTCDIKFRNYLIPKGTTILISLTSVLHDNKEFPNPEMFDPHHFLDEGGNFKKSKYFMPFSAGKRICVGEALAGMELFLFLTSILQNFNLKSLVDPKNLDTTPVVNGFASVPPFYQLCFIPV

[2] = read-out: Interleukin-8 (IL8), CXCL8 (gene 3576); assay: BSK_SAg_IL8: BioMAP Diversity Plus: SAg Assay for Interleukin-8 (IL8) Biomarker Activity (AID 2283094); details: actives raise or lower the signal; primary human HUVEC with PBMC
Summary of the method: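 ELISA read-out of IL-8 in a primary human vascular co-culture (umbilical vein endothelium plus PBMC), taken 24 h after compound addition. Values derive from bidirectional fits against DMSO negative controls.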

[3] = BSK_SAg_Proliferation: Cell Proliferation Assessment in the BioMAP Diversity Plus: SAg Assay (AID 2283095); details: primary human HUVEC with PBMC;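 note: relative cell number as total protein by SRB absorbance in sub-confluent culture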
Summary of the method: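 Cells (endothelium plus PBMC, human primary) were dosed with chemical, cultured 96 h, fixed in 10% TCA and stained with 0.1% SRB. Absorbance at 560 nm gave relative protein, fitted bidirectionally relative to DMSO.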

[4] = BSK_SAg_SRB: Viability Assessment in the BioMAP Diversity Plus: SAg Assay (AID 2283096); details: primary human HUVEC with PBMC;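 note: cells read one day after compound addition; hits may be either gain or loss of signal compared with DMSO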
Summary of the method: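 Endothelial/PBMC primary human co-culture; compound 24 h; fix 10% TCA, stain 0.1% SRB, A560; protein content as cytotoxicity proxy; bidirectional curve fit, DMSO = baseline.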

[5] = molecular target: human Caspase 10 (CASP10), CASP10 (gene 843) (UniProt Q92851); assay: NVS_ENZ_hCASP10: NovaScreen (NVS) Enzymatic Assay for human Caspase 10 (CASP10) (AID 2283133; active = hit-call score of the fitted dose curve at least 0.9, where 1 is the maximum)
Summary of the method: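 Recombinant human caspase-10 from E. coli, cell-free fluorogenic substrate assay read 1 h after dosing. Primary duplicate screen at 25 uM; hits (e.g. ≥30% inhibition) run singly in concentration-response up to 50 uM, normalised to DMSO.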

[6] = molecular target: human Caspase 2 (CASP2), CASP2 (gene 835) (UniProt P42575); assay: NVS_ENZ_hCASP2: NovaScreen (NVS) Enzymatic Assay for human Caspase 2 (CASP2) (AID 2283135; active = hit-call score of the fitted dose curve at least 0.9, where 1 is the maximum)
Summary of the method: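 E. coli-expressed enzyme in a cell-free protease assay, fluorescence read 1 h after dosing. Compounds at 25 uM in duplicate, with concentration-response up to 50 uM for hits; loss of signal against DMSO baseline.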

[7] = molecular target: human Beta-secretase (BACE), BACE1 (gene 23621) (UniProt P56817); assay: NVS_ENZ_hBACE: NovaScreen (NVS) Enzymatic Assay for human Beta-secretase (BACE) (AID 2283140; active = hit-call score of the fitted dose curve at least 0.9, where 1 is the maximum;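 note: hits are inhibitors that reduce fluorescent substrate signal versus DMSO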)
Description: NVS_ENZ_hBACE is a biochemical, single-readout assay that uses extracted gene-proteins from SF9 in a cell-free assay. Measurements were taken 1 hour after chemical dosing in a 96-well plate.NVS_ENZ_hBACE is one of one assay component(s) measured or calculated from the NVS_ENZ_hBACE assay. It is designed to make measurements of enzyme activity, a form of enzyme reporter, as detected with fluorescence intensity signals by Fluorescence technology.Data from the assay component NVS_ENZ_hBACE was analyzed into 1 assay endpoint. This assay endpoint, NVS_ENZ_hBACE, was analyzed in the positive analysis fitting direction relative to DMSO as the negative control and baseline of activity. […] Furthermore, this assay endpoint can be referred to as a primary readout, because this assay has produced multiple assay endpoints where this one serves a enzymatic activity function. […]
Binding assays used specific radioligands (tritiated, iodinated) with non-radioactive competitive displacement ligands in agonist or antagonist protocols (as indicated) and various reference compounds and inhibitors to titrate specific binding to receptors and transporters. Most enzyme assays (CYPs, kinases, phosphatases, proteases, HDACs) used recombinant protein and specific substrates (fluorescence mostly, some colorimetric and radioactive) and inhibitors, followed by a biochemical separation of substrate and product. […]

[8] = molecular target: human AMP-activated Protein Kinase, alpha 1 (AMPKa1), PRKAA1 (gene 5562) (UniProt Q13131); assay: NVS_ENZ_hAMPKa1: NovaScreen (NVS) Enzymatic Assay for human AMP-activated Protein Kinase, alpha 1 (AMPKa1) (AID 2283130; active = hit-call score of the fitted dose curve at least 0.9, where 1 is the maximum)
Summary of the method: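 Recombinant human AMPKα1 activity was measured cell-free by fluorescent substrate conversion with electrophoretic mobility-shift separation, 1 h after dosing. Duplicate single-point screening was at 25 uM; actives (≥30% inhibition) were retested in concentration-response up to 50 uM.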

[9] = molecular target: human AKT serine/threonine Kinase 1 (AKT1), AKT1 (gene 207) (UniProt P31749); assay: NVS_ENZ_hAKT1: NovaScreen (NVS) Enzymatic Assay for human AKT serine/threonine Kinase 1 (AKT1) (AID 2283138; active = hit-call score of the fitted dose curve at least 0.9, where 1 is the maximum)
Summary of the method: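 Recombinant AKT1, specific substrate, cell-free; 1 h; fluorescence intensity/electrophoretic mobility shift. Duplicate single-point 25 uM, then singleton CRC max 50 uM. DMSO = negative control/baseline; signal loss = inhibition.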

[10] = molecular target: human CYP2C9, CYP2C9 (gene 1559) (UniProt P11712); assay: NVS_ADME_hCYP2C9: NovaScreen (NVS) CYP450-related Enzyme Activity (ADME) Assay for human CYP2C9 (AID 2283108; active = hit-call score of the fitted dose curve at least 0.9, where 1 is the maximum)
Summary of the method: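 Cell-free assay of recombinant human CYP2C9 produced in Sf9 cells, with enzyme activity read by fluorescence intensity 0.75 h after compound addition. Loss of signal versus an acetonitrile negative control indicates inhibition. Primary screen used 10 uM in duplicate; actives were retested in concentration series.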

Measured: AC50

Cc1ccc([N+](=O)[O-])c([N+](=O)[O-])c1
inactive: [1] | [2] | [4]
active: [3] 15600 nM

Cc1c([N+](=O)[O-])cccc1[N+](=O)[O-]
active: [3] 182 nM
inactive: [1] | [2] | [4] | [5]

O=[N+]([O-])c1cccc([N+](=O)[O-])c1
inactive: [1] | [2] | [3] | [4] | [6] | [7]

Cc1cccc([N+](=O)[O-])c1[N+](=O)[O-]
inactive: [1] | [2] | [3] | [4] | [8] | [6]

Cc1ccc([N+](=O)[O-])cc1[N+](=O)[O-]
inactive: [1] | [2] | [3] | [4] | [9]

CC(C)OP(C)(=O)OC(C)C
active: [10] 2440 nM
inactive: [1] | [2] | [3] | [4]

— PubChem BioAssay (EPA / NIEHS)
